{
  "source": "PubChem BioAssay AID624263",
  "about": "(National Center for Advancing Translational Sciences (NCATS), 2012)",
  "note": "This is a selection; strong and weak results do not stand in their true shares. Activity calls are given as the source filed them. The call rests on the fitted dose curve; in most records, active means well fitted activation curve with a large enough effect; inconclusive means small, poorly fitted or top-dose-only effect; inactive means flat fitted curve, though single readings scatter; cell line not stated here. Entries that show only a call come without a potency.",
  "data": [
    {"assay": "A Quantitative High throughput Screen to Identify Chemical Modulators of PINK1 Expression; further: nearly all actives have a fitted effect of over 65% in size", "settings": "PINK1 immunofluorescence, high-content cytometry, 24 h; series mostly up to 76.6 µM", "values": [
      {"smiles": "Nc1ccccc1[As](=O)(O)c1ccccc1", "Potency": "inactive"},
      {"smiles": "O=C(O)COc1ccc([As](=O)(O)O)cc1[N+](=O)[O-]", "Potency": "inactive"},
      {"smiles": "O=P(Nc1nccs1)(Oc1ccccc1)Oc1ccccc1", "Potency": "inactive"},
      {"smiles": "O=P(Nc1nccs1)(c1ccccc1)c1nc2ccccc2s1", "note": "(stereo not drawn)", "Potency": "inactive"},
      {"smiles": "CS(=O)(=O)c1cc([N+](=O)[O-])c2no[n+]([O-])c2c1", "Potency": "inactive"},
      {"smiles": "N#CCCN(C(=O)COC(=O)C(O)(c1ccccc1)c1ccccc1)c1ccc(F)cc1", "Potency": "inactive"},
      {"smiles": "CN(C(=O)Cc1ccccc1)[C@@H]1CC[C@]2(CCCO2)C[C@H]1N1CCCC1", "Potency": "inactive"},
      {"smiles": "O=[N+]([O-])c1ccc2c(c1)nnn2O", "Potency": "inactive"},
      {"smiles": "CN(C)C(=O)c1cc([N+](=O)[O-])cc2c1-c1c(cc([N+](=O)[O-])cc1[N+](=O)[O-])C2=O", "Potency": "inactive"},
      {"smiles": "CC1=NCCc2c1[nH]c1ccccc21.O=[N+]([O-])c1cc([N+](=O)[O-])c(O)c([N+](=O)[O-])c1", "Potency": "inactive"},
      {"smiles": "CN(C(=O)Cc1ccc(Cl)c(Cl)c1)[C@H]1CC[C@@]2(CCCO2)C[C@@H]1N1CCCC1", "Potency": "inactive"},
      {"smiles": "NC(=O)Nc1ccc([As](=O)(O)O)cc1", "Potency": "inactive"},
      {"smiles": "Cc1cccc(OCC(=O)OC2CN3CCC2CC3)c1", "note": "(stereo not drawn)", "Potency": "inactive"},
      {"smiles": "O=[As](O)(c1cccc(O)c1)c1cccc(O)c1", "Potency": "inactive"},
      {"smiles": "Cc1cc(C)cc(OP(C)(=O)Nc2ccc(C)cc2C)c1", "note": "(stereo not drawn)", "Potency": "inactive"},
      {"smiles": "CCOC(=O)c1ccc(NP(C)(=O)Oc2cc(C)cc(C)c2)cc1", "note": "(stereo not drawn)", "Potency": "inactive"},
      {"smiles": "O=C(OC1CN2CCC1CC2)c1ccc(Cl)cc1", "note": "(stereo not drawn)", "Potency": "inactive"},
      {"smiles": "O=[As](O)(O)c1cccnc1", "Potency": "inactive"},
      {"smiles": "COc1cc(C(=O)NCC2(N3CCOCC3)CCCCC2)cc(Cl)c1OC(C)C", "Potency": "inactive"},
      {"smiles": "CS(=O)(=O)c1ccc(Cl)c(NC(=O)COC(=O)C(O)(c2ccccc2)c2ccccc2)c1", "Potency": "inactive"},
      {"smiles": "COc1ccccc1OP(C)(=O)Nc1cccc(Br)c1", "note": "(stereo not drawn)", "Potency": "inactive"},
      {"smiles": "CCOP(=O)(Nc1cccc2ccccc12)OCC", "Potency": "inactive"},
      {"smiles": "CP(=O)(Nc1cccc(Br)c1)Oc1ccccc1", "note": "(stereo not drawn)", "Potency": "inactive"},
      {"smiles": "Nc1cccc2c([As](=O)(O)O)cccc12", "Potency": "inactive"},
      {"smiles": "Cc1ccc(NCCc2c([N+](=O)[O-])cc([N+](=O)[O-])cc2[N+](=O)[O-])cc1", "Potency": "inactive"},
      {"smiles": "Cc1ccc(C)c(NP(C)(=O)Oc2ccccc2)c1", "note": "(stereo not drawn)", "Potency": "inactive"},
      {"smiles": "CCCOP(=S)(Nc1nc(N)cc(=O)[nH]1)OCCC", "Potency": "inactive"},
      {"smiles": "O=P1(N(CCCl)CCCl)NCCC(C(F)(F)F)O1", "note": "(stereo not drawn)", "Potency": "inactive"},
      {"smiles": "CN(Cc1cccnc1)C(=O)COc1ccc(Cl)c(Cl)c1.O=[N+]([O-])c1cc([N+](=O)[O-])c(O)c([N+](=O)[O-])c1", "Potency": "inactive"},
      {"smiles": "CC(C)(C)C(=O)NC(Sc1ncccn1)C(Cl)(Cl)Cl", "note": "(stereo not drawn)", "Potency": "inactive"},
      {"smiles": "O=P1(Nc2ccccn2)COc2ccccc2OC1", "Potency": "inactive"},
      {"smiles": "CCC1=CC2Cc3nc4ccc(Cl)cc4c(N)c3C(C1)C2", "note": "(stereo not drawn)", "Potency": "inactive"},
      {"smiles": "O=C(O)C(O)c1ccc(N(CCCl)CCCl)cc1.c1ccncc1", "note": "(stereo not drawn)", "Potency": "inactive"},
      {"smiles": "O=[N+]([O-])c1cc([N+](=O)[O-])c(-n2nnc3ccccc32)c([N+](=O)[O-])c1", "Potency": "inactive"},
      {"smiles": "CCOP(=O)(NC(=NC(C)c1ccccc1)NC(C)c1ccccc1)OCC", "note": "(stereo not drawn)", "Potency": "inactive"},
      {"smiles": "Nc1ccc(CCCCOc2ccccc2)cc1.O=[N+]([O-])c1cc([N+](=O)[O-])c(O)c([N+](=O)[O-])c1", "Potency": "inactive"},
      {"smiles": "CCOP(=O)(Nc1ccc(C)cn1)OCC", "Potency": "inactive"},
      {"smiles": "CN(CCCl)Cc1cc(Cl)c(NC2=NCCN2)c(Cl)c1", "Potency": "inactive"},
      {"smiles": "Cc1ccc(S(=O)(=O)N(CCCN)CCCc2c(C)nc(N)[nH]c2=O)cc1.O=[N+]([O-])c1cc([N+](=O)[O-])c(O)c([N+](=O)[O-])c1", "Potency": "inactive"},
      {"smiles": "CC(C)/C=N\\N=C(\\N)N[N+](=O)[O-]", "Potency": "inactive"},
      {"smiles": "CN(C(=O)Cc1ccc(Cl)c(Cl)c1)[C@@H]1CCCC[C@H]1N1CCCC1", "Potency": "inactive"},
      {"smiles": "Cc1nc2ccc3ccccc3c2s1.O=[N+]([O-])c1cc([N+](=O)[O-])c(O)c([N+](=O)[O-])c1", "Potency": "inactive"},
      {"smiles": "CC1(CBr)Cn2c(nc3ccccc3c2=O)S1", "note": "(stereo not drawn)", "Potency": "inactive"},
      {"smiles": "O=[N+]([O-])c1cc([N+](=O)[O-])c(-c2cnn(-c3ccccc3)c2)c([N+](=O)[O-])c1", "Potency": "inactive"},
      {"smiles": "COc1ccccc1CNC(=O)COC(=O)C(O)(c1ccccc1)c1ccccc1", "Potency": "inactive"},
      {"smiles": "CN(C)C1(CNC(=O)c2ccc(S(C)(=O)=O)cc2)CCCCC1", "Potency": "inactive"},
      {"smiles": "CC1=C2N=C(C=C3N=C(C(C)=C4[N-][C@@](C)([C@@H]5N=C1[C@](C)(CCC(=O)NC[C@@H](C)OP(=O)([O-])O[C@H]1[C@@H](O)[C@@H](n6cnc7cc(C)c(C)cc76)O[C@@H]1CO)[C@H]5CC(N)=O)[C@@](C)(CC(N)=O)[C@@H]4CCC(N)=O)[C@@](C)(CC(N)=O)[C@@H]3CCC(N)=O)C(C)(C)[C@@H]2CCC(N)=O.[C-]#N.[Co+3]", "Potency": "inactive"},
      {"smiles": "O=[N+]([O-])c1cc([N+](=O)[O-])c(Nc2nnnn2CCO)c([N+](=O)[O-])c1", "Potency": "inactive"},
      {"smiles": "O=C(/C=C/c1ccccc1)OC1CN2CCC1CC2", "note": "(stereo not drawn)", "Potency": "inactive"},
      {"smiles": "CCCC1OP(=O)(Nc2ccccc2)OCC1CC", "note": "(stereo not drawn)", "Potency": "inactive"},
      {"smiles": "Cc1nn(-c2ccccc2)c2c1P(=O)(N1CCOCC1)N(C)C(c1ccccc1)=N2", "note": "(stereo not drawn)", "Potency": "inactive"},
      {"smiles": "CC1CCC(C(C)C)C(OP(=O)(Nc2ccccn2)c2ccccc2)C1", "note": "(stereo not drawn)", "Potency": "inactive"},
      {"smiles": "Cc1ccc(C(=O)OC2CN3CCC2CC3)cc1", "note": "(stereo not drawn)", "Potency": "inactive"},
      {"smiles": "COc1cc([N+](=O)[O-])ccc1[N+](=O)[O-]", "Potency": "inactive"},
      {"smiles": "COc1cc(C2NCCC3(OCCO3)C2(C)C)cc(OC)c1OC.O=[N+]([O-])c1cc([N+](=O)[O-])c(O)c([N+](=O)[O-])c1", "note": "(stereo not drawn)", "Potency": "inactive"},
      {"smiles": "CCCOc1ccc(NP(C)(=O)Oc2ccc(Cl)cc2)cc1", "note": "(stereo not drawn)", "Potency": "inactive"},
      {"smiles": "CP(=O)(Nc1ccc(SC(F)(F)F)cc1)Oc1ccccc1", "note": "(stereo not drawn)", "Potency": "inactive"},
      {"smiles": "Nc1cccc([As](=O)(O)c2ccccc2)c1", "Potency": "inactive"},
      {"smiles": "O=[As](O)(c1cccs1)c1cccs1", "Potency": "inactive"},
      {"smiles": "Cc1ccc(OCC(=O)OC2CN3CCC2CC3)cc1", "note": "(stereo not drawn)", "Potency": "inactive"},
      {"smiles": "O=P1(Nc2ccc(Br)cn2)COc2ccccc2OC1", "Potency": "inactive"},
      {"smiles": "NS(=O)(=O)c1cccc(NC(=O)COC(=O)C(O)(c2ccccc2)c2ccccc2)c1", "Potency": "inactive"},
      {"smiles": "COc1ccccc1OP(C)(=O)Nc1c(C)cccc1C", "note": "(stereo not drawn)", "Potency": "inactive"}
    ]}
  ]
}
